From patent US20240245798A1, “NOVEL ANTI-TPBG ANTIBODY AND ANTIBODY-DRUG-CONJUGATES BASED THEREON, THERAPEUTIC METHODS AND USES THEREOF” (Tubulis GmbH, priority 2022, published 2024)

Assays:
Format in all cases: cell-based
[1] = test system: 5T4-negative cells (SW-620); test: Bystander killing, supernatant transfer; settings: supernatant from MDA-MB-468 or BXPC-3 after 5 days, SW-620 another 5 days
Description: To analyze bystander activity of ADCs on target-negative cells, 20.000 5T4-positive cells (MDA-MB-468 or BXPC-3) were incubated with increasing concentrations of ADCs (0-3 μg/ml). After 5 days, half of the cell culture supernatant volumes was transferred to 5.000 5T4-negative cells (SW-620) and incubated for another 5 days. Killing was analyzed by a resazurin-based viability measurement as described above.

BXPC-3 cells = test: In vitro cytotoxicity via resazurin assay, comparison with Anti-TPBG comparison ADC2, BXPC-3; settings: BXPC-3 cells with lower 5T4 expression; 7 days
SW-620 = test: In vitro cytotoxicity via resazurin assay on antigen negative cell line SW-620; settings: direct treatment

B1: Anti-TPBG comparison ADC2: Anti-TPBG comparison antibody2 conjugated to MC-VC-SECO-DUBA, DAR estimated 1.7 (conjugate)
heavy: EVQLEESGGGLVKPGGSLRLSCAASGIDLSHYVVGWVRQAPGKGLEWVSIIYGSGRTYYANWAKGRFTISRDNSKNTLYLQMNSLRAEDTAVYYCARDASVSVYYWGYFDLWGRGTLVTVSSASTKGPSVFPLAPSSKSTSGGTAALGCLVKDYFPEPVTVSWNSGALTSGVHTFPAVLQSSGLYSLSSVVTVPSSSLGTQTYICNVNHKPSNTKVDKKV[human IgG1 Fc with changes not spelt out]
light: DIQMTQSPSTLSASVGDRVTITCQASQSIGSELAWYQQKPGKAPKLLIYRASTLESGVPSRFSGSGSGTEFTLTISSLQPDDFATYYCQQGYTYSEIDNAFGQGTKVEIKRTVAAPSVFIFPPSDEQLKSGTASVVCLLNNFYPREAKVQWKVDNALQSGNSQESVTEQDSKDSTYSLSSTLTLSKADYEKHKVYACEVTHQGLSSPVTKSFNRGEC
**Q.** What does the source list for B1?
**A.** Bystander activity on target-negative cells after supernatant transfer from target-positive cells [1]: did not exhibit bystander effects at all; Cytotoxic activity (BXPC-3 cells): not active at all; Effect on antigen negative cell line SW-620 without preincubation with antigen positive cells (SW-620): did not have an effect
